Laboratory results as given in patent US11660289B2 (Small Pharma Ltd, priority 2020, dated 2023).

Assay: Human liver mitochondrial fraction intrinsic clearance
Format: in vitro ADME
Settings: 0.5 mg/mL human liver mitochondrial fraction
Method: Human Liver Mitochondrial (HLMt) fractions contain high quantities of MAO enzymes and therefore, provide a useful model system to measure the clearance of MAO substrates.
A series of investigations using HLMts were conducted to assess the effect of MAO on the metabolism of DMT and deuterated DMT analogues in vitro.

For `[2H]C([2H])([2H])N(C([2H])([2H])[2H])C([2H])([2H])Cc1c[nH]c2ccccc12` [SPL028viii, α,α,bis-deuterio-N,N-hexadeuterio-dimethyltryptamine], the “Half-life” value was 2.128 h.
